Common to all, as to test: HDAC inhibition assay
The target of one assay is HDAC7 (Homo sapiens (Human), UniProt Q8WUI4). To be noted: read-out: IC50 HDAC7.
The target in the next assay is HDAC1 (Homo sapiens (Human), UniProt Q13547). To be noted: read-out: IC50 HDAC1.
The next assay deals with HDAC3 (Homo sapiens (Human), UniProt O15379). To be noted: read-out: IC50 HDAC3.
The next assay has as its target HDAC5 (Homo sapiens (Human), UniProt Q9UQL6). To be noted: read-out: IC50 HDAC5.
A further assay concerns the target HDAC4 (Homo sapiens (Human), UniProt P56524). To be noted: read-out: IC50 HDAC4.
Another assay has as its target HDAC9 (Homo sapiens (Human), UniProt Q9UKV0). To be noted: read-out: IC50 HDAC9.
The target of the next assay is HDAC6 (Homo sapiens (Human), UniProt Q9UBN7). It counts as biochemical. To be noted: read-out: IC50 HDAC6.
The target of a further assay is HDAC8 (Homo sapiens (Human), UniProt Q9BY41). It counts as biochemical. To be noted: read-out: IC50 HDAC8.

The chains behind the UniProt entries cited, without tags or fusion partners. Residues count along the entry.
UniProt Q13547, whole entry: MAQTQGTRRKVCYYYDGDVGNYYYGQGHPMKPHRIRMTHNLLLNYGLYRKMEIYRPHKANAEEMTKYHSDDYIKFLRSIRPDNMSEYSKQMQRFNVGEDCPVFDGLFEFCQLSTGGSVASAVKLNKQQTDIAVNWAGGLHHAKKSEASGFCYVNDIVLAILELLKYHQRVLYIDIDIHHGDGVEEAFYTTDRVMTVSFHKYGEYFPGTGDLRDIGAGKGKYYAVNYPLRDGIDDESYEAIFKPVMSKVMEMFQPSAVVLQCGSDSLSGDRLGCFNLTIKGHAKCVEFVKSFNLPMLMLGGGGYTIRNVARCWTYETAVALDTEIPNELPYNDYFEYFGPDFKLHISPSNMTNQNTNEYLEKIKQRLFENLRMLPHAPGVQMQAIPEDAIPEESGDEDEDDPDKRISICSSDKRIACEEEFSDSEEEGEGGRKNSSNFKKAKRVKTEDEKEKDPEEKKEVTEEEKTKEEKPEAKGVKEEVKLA
UniProt O15379, whole entry: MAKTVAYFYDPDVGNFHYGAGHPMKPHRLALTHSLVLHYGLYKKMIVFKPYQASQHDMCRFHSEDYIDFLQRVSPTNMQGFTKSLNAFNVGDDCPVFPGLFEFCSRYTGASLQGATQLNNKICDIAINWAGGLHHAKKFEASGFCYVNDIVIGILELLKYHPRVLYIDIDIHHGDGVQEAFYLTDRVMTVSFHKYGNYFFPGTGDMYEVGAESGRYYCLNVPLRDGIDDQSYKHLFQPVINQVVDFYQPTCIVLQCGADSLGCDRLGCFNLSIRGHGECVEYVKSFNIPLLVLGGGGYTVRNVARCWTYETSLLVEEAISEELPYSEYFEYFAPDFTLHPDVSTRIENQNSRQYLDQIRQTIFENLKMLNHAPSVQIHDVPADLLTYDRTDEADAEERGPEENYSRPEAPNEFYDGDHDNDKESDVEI
UniProt Q9UQL6, whole entry: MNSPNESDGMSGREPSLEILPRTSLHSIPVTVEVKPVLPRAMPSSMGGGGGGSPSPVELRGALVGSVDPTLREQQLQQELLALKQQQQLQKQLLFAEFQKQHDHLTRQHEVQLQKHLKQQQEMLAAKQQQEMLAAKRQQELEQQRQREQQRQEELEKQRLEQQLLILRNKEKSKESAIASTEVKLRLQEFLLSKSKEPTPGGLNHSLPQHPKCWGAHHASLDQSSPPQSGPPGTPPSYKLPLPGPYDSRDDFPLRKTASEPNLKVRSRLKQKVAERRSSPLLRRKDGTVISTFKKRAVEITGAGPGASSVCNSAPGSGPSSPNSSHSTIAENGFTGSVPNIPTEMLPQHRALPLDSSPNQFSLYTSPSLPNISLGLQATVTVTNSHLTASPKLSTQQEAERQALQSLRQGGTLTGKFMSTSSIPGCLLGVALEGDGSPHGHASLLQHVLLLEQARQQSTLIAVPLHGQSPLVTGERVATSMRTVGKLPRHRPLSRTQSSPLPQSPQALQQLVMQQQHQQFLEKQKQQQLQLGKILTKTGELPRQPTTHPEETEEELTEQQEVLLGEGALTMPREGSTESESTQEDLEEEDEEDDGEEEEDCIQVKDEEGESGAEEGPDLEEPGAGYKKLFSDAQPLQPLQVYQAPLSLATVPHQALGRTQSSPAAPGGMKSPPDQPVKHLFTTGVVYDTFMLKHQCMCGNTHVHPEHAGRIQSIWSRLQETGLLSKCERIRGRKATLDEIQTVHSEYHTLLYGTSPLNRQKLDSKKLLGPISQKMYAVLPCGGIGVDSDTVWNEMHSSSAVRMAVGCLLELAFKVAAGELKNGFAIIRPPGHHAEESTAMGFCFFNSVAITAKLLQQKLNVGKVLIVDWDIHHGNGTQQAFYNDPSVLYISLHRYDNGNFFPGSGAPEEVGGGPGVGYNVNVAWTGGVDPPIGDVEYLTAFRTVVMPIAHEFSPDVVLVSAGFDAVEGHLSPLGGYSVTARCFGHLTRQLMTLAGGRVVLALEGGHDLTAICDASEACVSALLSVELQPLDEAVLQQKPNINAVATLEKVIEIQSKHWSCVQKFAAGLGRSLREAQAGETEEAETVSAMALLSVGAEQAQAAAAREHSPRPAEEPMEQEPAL
UniProt P56524, whole entry: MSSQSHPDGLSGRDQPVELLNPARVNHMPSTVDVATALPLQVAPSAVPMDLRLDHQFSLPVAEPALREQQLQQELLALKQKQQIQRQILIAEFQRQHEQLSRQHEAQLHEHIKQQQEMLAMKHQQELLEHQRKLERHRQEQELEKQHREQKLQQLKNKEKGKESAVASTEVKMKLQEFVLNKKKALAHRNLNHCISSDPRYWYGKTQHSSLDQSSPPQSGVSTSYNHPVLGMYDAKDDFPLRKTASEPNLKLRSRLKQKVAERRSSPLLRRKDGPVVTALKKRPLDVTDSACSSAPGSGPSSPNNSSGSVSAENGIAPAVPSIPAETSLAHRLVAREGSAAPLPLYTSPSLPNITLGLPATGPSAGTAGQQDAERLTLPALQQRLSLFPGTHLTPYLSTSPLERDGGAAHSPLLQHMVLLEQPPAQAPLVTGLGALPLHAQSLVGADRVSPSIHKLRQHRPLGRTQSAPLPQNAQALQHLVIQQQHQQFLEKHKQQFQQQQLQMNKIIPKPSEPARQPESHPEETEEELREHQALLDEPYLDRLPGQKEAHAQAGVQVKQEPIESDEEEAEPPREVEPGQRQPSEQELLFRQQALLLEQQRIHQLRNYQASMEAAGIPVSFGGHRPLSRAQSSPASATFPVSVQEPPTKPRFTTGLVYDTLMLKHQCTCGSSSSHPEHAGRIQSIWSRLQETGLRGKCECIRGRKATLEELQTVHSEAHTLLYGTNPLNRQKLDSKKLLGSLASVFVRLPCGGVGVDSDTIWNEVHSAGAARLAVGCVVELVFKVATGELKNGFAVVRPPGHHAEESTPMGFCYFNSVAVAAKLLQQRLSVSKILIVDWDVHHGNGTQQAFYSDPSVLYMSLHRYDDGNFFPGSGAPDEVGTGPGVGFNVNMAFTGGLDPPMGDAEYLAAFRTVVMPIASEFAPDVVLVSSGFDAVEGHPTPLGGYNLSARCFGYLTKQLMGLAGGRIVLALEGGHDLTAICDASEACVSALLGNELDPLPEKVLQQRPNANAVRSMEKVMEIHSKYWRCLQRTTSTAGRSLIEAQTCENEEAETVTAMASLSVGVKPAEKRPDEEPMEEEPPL
UniProt Q9UKV0, whole entry: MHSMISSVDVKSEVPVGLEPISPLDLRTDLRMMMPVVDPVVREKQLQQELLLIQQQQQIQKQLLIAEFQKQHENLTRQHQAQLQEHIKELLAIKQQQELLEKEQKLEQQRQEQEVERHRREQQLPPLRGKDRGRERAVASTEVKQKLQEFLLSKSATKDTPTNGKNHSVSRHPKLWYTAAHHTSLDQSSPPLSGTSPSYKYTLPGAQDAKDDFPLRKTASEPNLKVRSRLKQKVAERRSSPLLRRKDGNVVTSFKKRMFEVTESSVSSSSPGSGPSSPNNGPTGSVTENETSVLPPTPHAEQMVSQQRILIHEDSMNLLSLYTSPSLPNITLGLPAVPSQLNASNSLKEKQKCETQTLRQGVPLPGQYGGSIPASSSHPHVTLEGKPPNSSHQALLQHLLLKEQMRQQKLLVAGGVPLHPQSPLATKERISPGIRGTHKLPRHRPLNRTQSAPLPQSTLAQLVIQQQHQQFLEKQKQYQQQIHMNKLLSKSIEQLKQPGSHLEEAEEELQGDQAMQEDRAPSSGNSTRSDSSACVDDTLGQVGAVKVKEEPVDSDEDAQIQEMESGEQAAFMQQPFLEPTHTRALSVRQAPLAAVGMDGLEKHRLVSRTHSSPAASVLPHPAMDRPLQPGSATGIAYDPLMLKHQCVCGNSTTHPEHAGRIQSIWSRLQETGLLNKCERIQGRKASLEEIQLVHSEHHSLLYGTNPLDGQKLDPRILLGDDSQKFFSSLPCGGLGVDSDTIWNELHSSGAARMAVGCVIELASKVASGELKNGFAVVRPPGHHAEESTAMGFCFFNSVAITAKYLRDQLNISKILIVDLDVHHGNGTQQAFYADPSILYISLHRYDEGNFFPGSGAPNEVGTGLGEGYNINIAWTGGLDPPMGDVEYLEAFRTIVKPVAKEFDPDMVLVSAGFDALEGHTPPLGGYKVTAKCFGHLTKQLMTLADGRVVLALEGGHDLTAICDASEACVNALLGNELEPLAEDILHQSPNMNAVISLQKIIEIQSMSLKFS
UniProt Q9UBN7, whole entry: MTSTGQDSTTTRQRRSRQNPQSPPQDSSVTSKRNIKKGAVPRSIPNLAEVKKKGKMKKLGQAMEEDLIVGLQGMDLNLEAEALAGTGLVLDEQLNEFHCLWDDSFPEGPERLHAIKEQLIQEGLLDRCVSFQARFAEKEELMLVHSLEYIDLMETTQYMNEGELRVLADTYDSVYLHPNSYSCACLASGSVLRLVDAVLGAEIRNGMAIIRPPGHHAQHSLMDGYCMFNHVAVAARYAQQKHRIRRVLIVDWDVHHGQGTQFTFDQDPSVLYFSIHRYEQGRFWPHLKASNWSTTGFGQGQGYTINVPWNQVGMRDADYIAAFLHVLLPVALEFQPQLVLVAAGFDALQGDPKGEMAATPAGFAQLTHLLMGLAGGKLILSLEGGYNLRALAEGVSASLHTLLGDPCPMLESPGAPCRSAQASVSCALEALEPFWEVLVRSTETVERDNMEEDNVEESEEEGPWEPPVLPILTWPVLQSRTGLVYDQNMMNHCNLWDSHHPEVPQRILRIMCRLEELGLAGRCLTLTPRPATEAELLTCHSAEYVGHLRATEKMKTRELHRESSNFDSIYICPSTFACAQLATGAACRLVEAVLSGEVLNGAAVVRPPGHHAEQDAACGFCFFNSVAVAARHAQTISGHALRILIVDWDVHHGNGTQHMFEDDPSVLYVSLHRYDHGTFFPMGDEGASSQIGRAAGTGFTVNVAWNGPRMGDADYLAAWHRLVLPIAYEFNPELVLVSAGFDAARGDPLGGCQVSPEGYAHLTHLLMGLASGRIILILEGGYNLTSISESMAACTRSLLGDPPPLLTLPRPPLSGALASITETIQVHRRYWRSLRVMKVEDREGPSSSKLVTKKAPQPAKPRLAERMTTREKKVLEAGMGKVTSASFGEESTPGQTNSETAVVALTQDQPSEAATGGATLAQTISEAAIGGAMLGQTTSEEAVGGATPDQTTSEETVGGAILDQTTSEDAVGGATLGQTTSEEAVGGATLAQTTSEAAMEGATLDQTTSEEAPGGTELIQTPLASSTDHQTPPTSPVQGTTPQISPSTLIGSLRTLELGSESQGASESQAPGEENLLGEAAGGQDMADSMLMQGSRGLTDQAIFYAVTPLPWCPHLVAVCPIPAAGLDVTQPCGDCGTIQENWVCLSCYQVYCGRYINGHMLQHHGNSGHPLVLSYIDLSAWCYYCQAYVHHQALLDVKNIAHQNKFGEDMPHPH
UniProt Q9BY41, whole entry: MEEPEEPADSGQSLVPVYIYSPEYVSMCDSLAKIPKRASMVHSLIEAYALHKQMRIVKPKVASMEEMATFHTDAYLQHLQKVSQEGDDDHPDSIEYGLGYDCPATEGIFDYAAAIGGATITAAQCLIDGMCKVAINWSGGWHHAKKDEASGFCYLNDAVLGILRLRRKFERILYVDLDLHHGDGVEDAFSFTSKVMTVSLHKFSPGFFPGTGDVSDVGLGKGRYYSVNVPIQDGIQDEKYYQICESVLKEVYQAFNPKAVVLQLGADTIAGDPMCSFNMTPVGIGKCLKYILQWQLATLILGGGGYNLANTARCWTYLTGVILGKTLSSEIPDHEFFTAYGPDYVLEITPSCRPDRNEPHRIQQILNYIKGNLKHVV
UniProt Q9Y618, 395-489 partner limits assumed: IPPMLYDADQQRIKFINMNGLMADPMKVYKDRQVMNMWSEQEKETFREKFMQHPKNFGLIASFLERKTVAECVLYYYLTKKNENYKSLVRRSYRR

`CN(Cc1cccc(/C=C/C(=O)NO)c1)C12CC3CC(CC(C3)C1)C2`: the IC50 at HDAC7 is over 40000 nM; at HDAC1, 24 nM; at HDAC3 it was 32.7 nM; at HDAC5, 244 nM; on HDAC4, 2530 nM; at HDAC9 it was over 20000 nM. Further, the IC50 is 16.5 nM on HDAC6 and 2230 nM on HDAC8.
